scFv variants of Ab-91 (heavy chain) against a SARS-CoV-2 spike peptide

The measurements come from Engelhart et al. 2022 (doi:10.1038/s41597-022-01779-4) through the FLAb antibody collection.

Binding partner: SARS-CoV-2 spike HR2 peptide, sequence PDVDLGDISGINAS.

Parent scFv Ab-91: VL joined to VH by a (GGGGS)3 linker. Changes lie in the heavy chain CDRs alone.
VL: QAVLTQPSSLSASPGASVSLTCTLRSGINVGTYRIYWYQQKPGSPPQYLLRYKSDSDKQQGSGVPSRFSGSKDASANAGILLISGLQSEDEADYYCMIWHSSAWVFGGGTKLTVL
VH: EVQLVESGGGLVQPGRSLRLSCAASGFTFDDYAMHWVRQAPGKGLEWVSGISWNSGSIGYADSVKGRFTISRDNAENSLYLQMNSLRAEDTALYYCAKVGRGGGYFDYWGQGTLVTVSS

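The library (AAYL51) carries one to three amino acid substitutions per variant, with no insertions or deletions. AlphaSeq pools MATa yeast showing the antibodies with MATalpha yeast showing the peptide. Mating (16 h, 30 °C) was followed by selection of diploids and sequencing of their barcodes. Each replicate has its own calibration line, from reference interactions of the BCL2 family. There are three technical replicates.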

Variants are written as CDR1, CDR2 and CDR3 of the heavy chain (limits as in the source). Parent: GFTFDDYAMH, GISWNSGSIGYADSVK, VGRGGGYFDY. Numbers give log10(Kd / nM), so 0 is 1 nM and 3 is 1 µM. Smaller is tighter. A mean of the replicates is given; it leaves out those without a signal. An entry "nd" has no value in the source: the pair was not observed among the diploids in that replicate. This suggests poor binding but is not conclusive. For reference, the parent read 1.86 as the reference entry and 0.88 as a member of this library. Background: pairings of library AAYL51 with three empty control strains gave a value in 21% of cases (median 4.54, 5th percentile 3.26). Values in that range, when seen in few replicates, are hard to tell from nonspecific mating. Also given: how often the same scFv was detected with the empty control strains, with their mean in brackets.

{"CDR-H1": "GMTFDDYAMH", "CDR-H2": "GISWNSGSDGYADSVK", "CDR-H3": "VGRMGGYFDY", "log10 Kd (nM) by replicate": "nd / nd / nd", "log10 Kd (nM), mean": "nd", "empty controls": "3/9 (4.56)"}
{"CDR-H1": "GFTFDDTAMH", "CDR-H2": "GISWNSGSIGYADSSK", "CDR-H3": "VGRSGGYFDY", "log10 Kd (nM) by replicate": "5.47 / 5.18 / 4.98", "log10 Kd (nM), mean": "5.21", "empty controls": "2/9 (5.00)"}
{"CDR-H1": "GFTFDDYIMH", "CDR-H2": "GKSWNSGSIGYADSVK", "CDR-H3": "VGRGGLYFDY", "log10 Kd (nM) by replicate": "3.96 / nd / nd", "log10 Kd (nM), mean": "3.96", "empty controls": "0/9"}
{"CDR-H1": "GFTFDDYAMH", "CDR-H2": "LISWDSGSIGYADSVK", "CDR-H3": "VGRGGSYFDY", "log10 Kd (nM) by replicate": "nd / nd / nd", "log10 Kd (nM), mean": "nd", "empty controls": "0/9"}
{"CDR-H1": "GFTFDDYAMC", "CDR-H2": "GISWNSGSIGYADSVK", "CDR-H3": "PGRGGGYFDI", "log10 Kd (nM) by replicate": "nd / nd / nd", "log10 Kd (nM), mean": "nd", "empty controls": "2/9 (4.52)"}
{"CDR-H1": "GFTFDDYAMH", "CDR-H2": "GISWNSGSPGYADSVK", "CDR-H3": "VGRGWEYFDY", "log10 Kd (nM) by replicate": "3.33 / nd / nd", "log10 Kd (nM), mean": "3.33", "empty controls": "0/9"}
{"CDR-H1": "GFTFDDYAMH", "CDR-H2": "RISWNSGSIGYADSVK", "CDR-H3": "VWRGGGYIDY", "log10 Kd (nM) by replicate": "nd / nd / nd", "log10 Kd (nM), mean": "nd", "empty controls": "2/9 (3.27)"}
{"CDR-H1": "GFFFDLYAMP", "CDR-H2": "GISWNSGSIGYADSVK", "CDR-H3": "VGRGGGYFDY", "log10 Kd (nM) by replicate": "nd / nd / 3.58", "log10 Kd (nM), mean": "3.58", "empty controls": "0/9"}
{"CDR-H1": "GFQFDDKAMH", "CDR-H2": "GISWNSGSIGYADSHK", "CDR-H3": "VGRGGGYFDY", "log10 Kd (nM) by replicate": "nd / nd / nd", "log10 Kd (nM), mean": "nd", "empty controls": "0/9"}
{"CDR-H1": "GFTFLDYAMH", "CDR-H2": "GISWNSGSIRYAQSVK", "CDR-H3": "VGRGGGYFDY", "log10 Kd (nM) by replicate": "4.72 / nd / nd", "log10 Kd (nM), mean": "4.72", "empty controls": "1/9 (2.40)"}
{"CDR-H1": "GFTFDDYAMH", "CDR-H2": "GISWNSGSIGYVDSVK", "CDR-H3": "VGRGEGYPDY", "log10 Kd (nM) by replicate": "2.88 / 2.89 / 2.46", "log10 Kd (nM), mean": "2.74", "empty controls": "1/9 (4.68)"}
{"CDR-H1": "RFTFDDYAMH", "CDR-H2": "GISWNSGSIGYADSVK", "CDR-H3": "NKRGGGYFDY", "log10 Kd (nM) by replicate": "nd / 3.26 / nd", "log10 Kd (nM), mean": "3.26", "empty controls": "2/9 (4.43)"}
{"CDR-H1": "SFSFDDYAMH", "CDR-H2": "GISWNSGSIGYADSNK", "CDR-H3": "VGRGGGYFDY", "log10 Kd (nM) by replicate": "4.50 / 4.97 / 3.81", "log10 Kd (nM), mean": "4.43", "empty controls": "5/9 (4.46)"}
{"CDR-H1": "GFHFDDYAMH", "CDR-H2": "LISWNSGSIGYADSVK", "CDR-H3": "VGRGHGYFDY", "log10 Kd (nM) by replicate": "4.38 / nd / nd", "log10 Kd (nM), mean": "4.38", "empty controls": "5/9 (5.17)"}
{"CDR-H1": "GFNFDDYAMH", "CDR-H2": "GISWNSGSIGYADSVK", "CDR-H3": "VGRPGGYFDY", "log10 Kd (nM) by replicate": "3.97 / 3.66 / nd", "log10 Kd (nM), mean": "3.82", "empty controls": "3/9 (5.37)"}
{"CDR-H1": "GFTRDDYDMH", "CDR-H2": "GISWNSGSIGYADSVK", "CDR-H3": "VGRGGGYFEY", "log10 Kd (nM) by replicate": "nd / nd / 3.04", "log10 Kd (nM), mean": "3.04", "empty controls": "2/9 (5.12)"}
{"CDR-H1": "GHTFDDYAMH", "CDR-H2": "GISPNSPSIGYADSVK", "CDR-H3": "VGRGGGYFDY", "log10 Kd (nM) by replicate": "nd / nd / nd", "log10 Kd (nM), mean": "nd", "empty controls": "1/9 (4.76)"}
{"CDR-H1": "GFTFDDYAQP", "CDR-H2": "GISENSGSIGYADSVK", "CDR-H3": "VGRGGGYFDY", "log10 Kd (nM) by replicate": "nd / 4.58 / nd", "log10 Kd (nM), mean": "4.58", "empty controls": "4/9 (4.12)"}
{"CDR-H1": "AFTWDDYAMH", "CDR-H2": "GISWNSGSIYYADSVK", "CDR-H3": "VGRGGGYFDY", "log10 Kd (nM) by replicate": "nd / 5.94 / 4.72", "log10 Kd (nM), mean": "5.33", "empty controls": "3/9 (4.88)"}
{"CDR-H1": "GFTFDDYAMH", "CDR-H2": "VWSWNSGSIGYADSVK", "CDR-H3": "VGRGGGYYDY", "log10 Kd (nM) by replicate": "nd / 6.04 / nd", "log10 Kd (nM), mean": "6.04", "empty controls": "1/9 (3.62)"}
{"CDR-H1": "GFTFDDYAMH", "CDR-H2": "GISMNSGSIGWADSVK", "CDR-H3": "VGRIGGYFDY", "log10 Kd (nM) by replicate": "nd / 3.85 / nd", "log10 Kd (nM), mean": "3.85", "empty controls": "1/9 (4.27)"}
{"CDR-H1": "GFTFDDYAMH", "CDR-H2": "LISWNSVSIGYRDSVK", "CDR-H3": "VGRGGGYFDY", "log10 Kd (nM) by replicate": "nd / nd / nd", "log10 Kd (nM), mean": "nd", "empty controls": "1/9 (3.93)"}
{"CDR-H1": "GFTFDTYAMH", "CDR-H2": "GIPWNSGSIGYYDSVK", "CDR-H3": "VGRGGGYFDY", "log10 Kd (nM) by replicate": "5.08 / 4.93 / nd", "log10 Kd (nM), mean": "5.00", "empty controls": "1/9 (4.24)"}
{"CDR-H1": "GFTFDDYAMH", "CDR-H2": "DISWNSGEIGYADSVK", "CDR-H3": "VGYGGGYFDY", "log10 Kd (nM) by replicate": "nd / nd / nd", "log10 Kd (nM), mean": "nd", "empty controls": "2/9 (3.55)"}
{"CDR-H1": "GFTFDDYAMH", "CDR-H2": "GISWNSGSIGIADSVK", "CDR-H3": "VGRLGGYPDY", "log10 Kd (nM) by replicate": "4.41 / 4.39 / nd", "log10 Kd (nM), mean": "4.40", "empty controls": "5/9 (4.97)"}
{"CDR-H1": "RFTPDDYAMH", "CDR-H2": "GISWVSGSIGYADSVK", "CDR-H3": "VGRGGGYFDY", "log10 Kd (nM) by replicate": "6.31 / nd / 4.85", "log10 Kd (nM), mean": "5.58", "empty controls": "5/9 (4.93)"}
{"CDR-H1": "GFTFDDYAMP", "CDR-H2": "GISWNVHSIGYADSVK", "CDR-H3": "VGRGGGYFDY", "log10 Kd (nM) by replicate": "4.71 / 3.73 / nd", "log10 Kd (nM), mean": "4.22", "empty controls": "7/9 (4.49)"}
{"CDR-H1": "GFTTDDLAMH", "CDR-H2": "GISWNSGSIGYADSVK", "CDR-H3": "VGRGGHYFDY", "log10 Kd (nM) by replicate": "nd / nd / nd", "log10 Kd (nM), mean": "nd", "empty controls": "1/9 (3.50)"}

For reference, 4 entries of the list once more:

{"CDR-H1": "GFQFDDKAMH", "CDR-H2": "GISWNSGSIGYADSHK", "CDR-H3": "VGRGGGYFDY", "log10 Kd (nM) by replicate": "nd / nd / nd", "log10 Kd (nM), mean": "nd", "empty controls": "0/9"}
{"CDR-H1": "GFTFDDYAQP", "CDR-H2": "GISENSGSIGYADSVK", "CDR-H3": "VGRGGGYFDY", "log10 Kd (nM) by replicate": "nd / 4.58 / nd", "log10 Kd (nM), mean": "4.58", "empty controls": "4/9 (4.12)"}
{"CDR-H1": "GFTFDDYIMH", "CDR-H2": "GKSWNSGSIGYADSVK", "CDR-H3": "VGRGGLYFDY", "log10 Kd (nM) by replicate": "3.96 / nd / nd", "log10 Kd (nM), mean": "3.96", "empty controls": "0/9"}
{"CDR-H1": "GFFFDLYAMP", "CDR-H2": "GISWNSGSIGYADSVK", "CDR-H3": "VGRGGGYFDY", "log10 Kd (nM) by replicate": "nd / nd / 3.58", "log10 Kd (nM), mean": "3.58", "empty controls": "0/9"}